# Results published in patent publication US6365759B1, “Intermediate compounds for preparing macrocylcic analogs” (Eisai Co., Ltd., priority 1998, dated 2002).
# Tested on: U937 human histiocytic lymphoma cells
# Assay: U937 Mitotic Block Reversibility Assay
# Type: cell-based
structure (smiles),measurement,value
C=C1CC2CCC34CC5OC6C(OC7CCC(CC(=O)CC8C(CC9OC(CCC1O2)CC(C)C9=C)OC(C(O)CO)C8C)OC7C6O3)C5O4 (stereo not drawn) [Compound B2090],Complete Mitotic Block 0 hour,2 nM
same,Complete Mitotic Block 10 hour,10 nM
same,Reversibility Ratio,5.0
